Reference: patent publication EP4831176A1, “BICYCLIC FUSED HETEROAROMATIC RING DERIVATIVE, AND PHARMACEUTICAL COMPOSITION AND USE THEREOF” (dated 2026)

System: human B-cell non-Hodgkin lymphoma Karpas-422 cell line
Experiment: Subcutaneous xenograft tumor model of Karpas-422 cell line in BALB/c nude mice
Procedure: • Animal species and strain: BALB/c nude mice • Administration history: no history of administration • Sex, age, weight: female, 6-8 weeks, body weight 18-25 grams • Breeder/supplier: Shanghai Model Organisms Center, Inc. • Acclimation period: no less than 3-7 days • Room: SPF area room • Indoor temperature: 20-26°C • Indoor relative humidity: 40-70% • Lighting: fluorescent lamp illumination, 12-hour light (08:00-20:00) and 12-hour dark • Animal housing: 2-6 animals per cage (same administration group) • Food: unlimited access to feed (irradiated sterilized, Shaanxi Qinle Pharmaceutical Chemical Co., Ltd., China) • Water: unlimited access to drinking water (tap water purified by ultrapure water filtration system) • Female BALB/c nude mice were purchased from the supplier and used to select animals with suitable body weight range and tumor size for enrollment. All animals were specific pathogen-free, approximately 6-8 weeks old upon arrival at the laboratory.
The human B-cell non-Hodgkin lymphoma Karpas-422 cell line used in this experiment was cultured in RPMI-1640 medium supplemented with 10% FBS in a 37°C incubator with 5% CO2. Within ten passages of continuous culture, 100 µL of PBS containing 1 × 10^7 Karpas-422 cells was mixed with an equal volume of Matrigel, and the mixture was subcutaneously inoculated into the right side of the mouse near the armpit, with an inoculation volume of approximately 200 µL. Before inoculation, mice were anesthetized with 3-4% isoflurane.
When the tumors grew to an average size of approximately 70-150 mm^3, tumor-bearing mice were randomly assigned to groups based on tumor volume and body weight, with 8 mice per group. The day of grouping and administration was defined as Day 0. […] According to the results disclosed in the reference (J. Med. Chem. 2021, 64, 14540-14556), Compound D1 (CAS: 2585648-55-9) was selected as the positive compound for this experiment.
The control group was administered intraperitoneally with 70% aqueous solution containing 5% glucose + 30% aqueous solution containing 15% HP-β-CD. Table 12. Grouping and Administration Regimen
Tumor volume: For the subcutaneous xenograft model, tumor volumes were measured twice weekly after grouping. The tumor volume (V) was calculated as follows: V = (length × width^2) / 2. The relative tumor volume (RTV) for each nude mouse was calculated as: RTV = Vt / V0, where Vt is the measured volume at each time point, and V0 is the volume at the start of treatment.
Animal body weight: After grouping, mouse body weight was measured and recorded twice weekly.
The negative control group was the control group, and the treatment groups were the groups administered D1 or H105. Results are presented as mean ± S.E.M. Comparisons between two groups were performed using Dunnett's multiple comparison test. A p-value < 0.05 was considered statistically significant.

Q: How did the T/C (Compound D1 50 mg/kg p.o. QD, Compound H105 10 mg/kg p.o. QD) turn out when `Cn1nc(C2CCC(=O)NC2=O)c2ccc(N3CCC(CN4CCC(c5ccc(-c6cnc(NCc7c(F)ccc8c7CCO8)n7cnnc67)cc5)CC4)CC3)cc21` (stereo not drawn) was run?
A: Its T/C is 2.69%.

Q: And the “in vivo anti-tumor activity (in words)” value (Compound D1 at 50 mg/kg, Compound H105 at 10 mg/kg)?
A: Its value is “could effectively inhibit tumor growth”.

Q: What about the “Average body weight D0” value (Day 0 (day of grouping and administration), Compound D1 50 mg/kg p.o. QD, Compound H105 10 mg/kg p.o. QD) of the same compound?
A: Its value is 21.7 g.

Q: What about the “Average body weight D30” value (Day 30, Compound D1 50 mg/kg p.o. QD, Compound H105 10 mg/kg p.o. QD) of the same compound?
A: Its value is 21.2 g.

Q: And the RTV (relative tumor volume Vt/V0, Compound D1 50 mg/kg p.o. QD, Compound H105 10 mg/kg p.o. QD)?
A: The RTV was 0.46.

Q: What about the TGI (tumor growth (volume) inhibition rate, Compound D1 50 mg/kg p.o. QD, Compound H105 10 mg/kg p.o. QD) of the same compound?
A: The TGI was 103.43%.
